Data taken from ChEMBL document CHEMBL6115015, “Design, synthesis and biological activity of 8-hydroxy modified urolithin A derivatives as phosphodiesterase type II (PDE2) inhibitors” (Bioorg Med Chem, 2025).

Protein sequences, listed by entry. Tags and fused reporters are not part of them.
UniProt O00408, whole entry: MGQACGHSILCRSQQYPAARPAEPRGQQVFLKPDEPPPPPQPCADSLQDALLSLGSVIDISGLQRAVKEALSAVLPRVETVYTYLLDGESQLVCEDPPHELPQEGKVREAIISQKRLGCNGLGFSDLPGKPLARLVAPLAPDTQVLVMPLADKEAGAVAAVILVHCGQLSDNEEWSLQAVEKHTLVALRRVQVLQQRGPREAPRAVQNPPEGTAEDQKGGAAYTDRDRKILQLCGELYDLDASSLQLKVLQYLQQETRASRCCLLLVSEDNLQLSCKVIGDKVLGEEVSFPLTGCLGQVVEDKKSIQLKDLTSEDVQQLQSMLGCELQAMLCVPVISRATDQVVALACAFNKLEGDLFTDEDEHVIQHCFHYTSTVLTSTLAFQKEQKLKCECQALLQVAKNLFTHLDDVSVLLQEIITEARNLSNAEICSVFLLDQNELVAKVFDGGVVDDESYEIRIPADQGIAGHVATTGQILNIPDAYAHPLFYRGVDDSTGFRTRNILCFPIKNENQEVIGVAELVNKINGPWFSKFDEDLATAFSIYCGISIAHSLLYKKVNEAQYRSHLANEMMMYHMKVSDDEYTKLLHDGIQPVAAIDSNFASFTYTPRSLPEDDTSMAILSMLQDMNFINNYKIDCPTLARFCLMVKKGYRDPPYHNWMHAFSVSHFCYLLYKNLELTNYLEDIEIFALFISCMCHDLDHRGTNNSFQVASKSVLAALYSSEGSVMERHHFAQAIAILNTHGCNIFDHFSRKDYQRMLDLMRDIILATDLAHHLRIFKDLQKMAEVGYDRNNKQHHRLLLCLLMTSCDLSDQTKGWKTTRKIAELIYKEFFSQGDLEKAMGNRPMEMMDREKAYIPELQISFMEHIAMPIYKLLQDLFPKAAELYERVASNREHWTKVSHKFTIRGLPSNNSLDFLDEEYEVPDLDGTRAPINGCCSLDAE

Target: cGMP-dependent 3',5'-cyclic phosphodiesterase (Homo sapiens, UniProt O00408)
Details: time 50.0 min

Ratio IC50: > 20
Compound: O=c1oc2cc(O)ccc2c2ccc(OCC3CCCO3)cc12 (stereo unspecified)
